According to US11344574B2, “Fluoro substituted porphyrin compounds, pharmaceutical compositions comprising the same, and methods of preparing and using the same” (Duke University, priority 2017, dated 2022):

Assay: Lipophilicity by TLC retention factor Rf on silica
Format: physicochemical
Conditions: ratio of MnP path to solvent path on silica plate, 1:1:8 KNO3(sat):H2O:acetonitrile
Source text: Fluorination enhances the lipophilicity of MnPs as described with TLC retention factor, Rf (compound path/solvent path). Rf was obtained on silica gel plates using acetonitrile:KNO3(sat):water=8:1:1 as previously described (Tovmasyan A, Carballal S, Ghazaryan R, Melikyan L, Weitner T, Maia C G, Reboucas J S, Radi R, Spasojevic I, Benov L, and Batinic-Haberle I. Rational Design of Superoxide Dismutase (SOD) Mimics: The Evaluation of the Therapeutic Potential of New Cationic Mn Porphyrins with Linear and Cyclic Substituents. Inorg Chem 53: 11467-83, 2014).
In some embodiments, the fluoro-substituted porphyrins of the present invention may have enhanced lipophilicity (e.g., compared to non-fluoro-substituted porphyrins). Lipophilicity can be measured via thin layer chromatography. The relative lipophilicity of a group of compounds can be determined in a given solvent system. […] The fluoro-substituted porphyrins of the present invention suitably have a lipophilicity of greater than zero in a solvent system of acetonitrile:water:KNO3 (saturated aqueous) (8:1:1). Alternatively, the lipophilicity may be quantified by the standard octanol/water partition coefficient (log P). In some embodiments, the lipophilic fluoro-substituted porphyrins may have a greater bioavailability than their hydrophilic analogs. In addition, the lipophilic fluoro-substituted porphyrins may have enhanced intracellular accumulation and/or intracellular uptake and/or potency in vivo as compared to hydrophilic analogs. Further, in other embodiments, the lipophilic fluoro-substituted porphyrins may selectively target different cellular compartments, such as the mitochrondria or the nucleus. Alternatively, other related cell/mitochrondia viability assays (e.g. MTT assay) may be used.

| Compound | f |
| --- | --- |
| CC[n+]1ccccc1-c1c2nc(c(-c3cccc[n+]3CC)c3ccc([n-]3)c(-c3cccc[n+]3CC)c3nc(c(-c4cccc[n+]4CC)c4ccc1[n-]4)C=C3)C=C2.[Mn+3] [Mn1, MnTE-2-PyP^5+, reference compound] | .06 |
| FCC[n+]1ccccc1C1=C2C=CC3=[N+]2[Mn]24[n]5c1ccc5C(c1cccc[n+]1CCF)=C1C=CC(=[N+]12)C(c1cccc[n+]1CCF)=c1ccc([n]14)=C3c1cccc[n+]1CCF [Mn3, Mn(III) 5,10,15,20-tetra(2-fluoroethylpyridinium-2-yl)porphinato pentachloride] | .11 |
| FC(F)(F)CCCC[n+]1ccccc1C1=C2C=CC3=[N+]2[Mn]24[n]5c1ccc5C(c1cccc[n+]1CCCCC(F)(F)F)=C1C=CC(=[N+]12)C(c1cccc[n+]1CCCCC(F)(F)F)=c1ccc([n]14)=C3c1cccc[n+]1CCCCC(F)(F)F [Mn4, 5,10,15,20-tetra(Mn(III) 5′,5′,5′-trifluoropentylpyridinium-2-yl)porphinato pentachloride] | .43 |
| Mn(III) ortho N-butoxyethylpyridylporphyrin [Mn2, reference compound] | .43 |
| MnTnPen-2-PyP^5+ [reference compound] | .32 |
